# Integrin act MD – activators of alpha7 integrin expression for muscular dystrophy. alpha7betagal myoblasts, beta-gal FDG fluorescence, 48 h. Potency, µM (titrated, usually from 38.3 µM), inactives show at the highest dose activation, most hits filed as activators. 350,000 tested, 0.064% active. AID 624291; active = well fitted activation curve with a large enough effect; inconclusive = small, poorly fitted or top-dose-only effect; inactive = no such curve, though single readings can be large or run the other way;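 also: potency is read from the fitted curve at half-maximal effect; 100% = response of the positive control SU9516; nearly all actives have a fitted effect of over 60% in size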
#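 alpha7betagal+/- myoblasts (passage 13, 250/well) treated 48 h at 37C with compounds at 1:260 dilution of DMSO stock. Lysed, then beta-galactosidase activity read as FDG fluorescence (ex 480/em 540) after 30 min, with pre-read for autofluorescence.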
# Rango complex inh – prevents formation of the Rango-importin beta complex | Q14974 | Rango CFP/YFP FRET sensor + importin beta, 45 min | Potency, µM (top dose mostly 92.2 µM), without a hit: at the top dose inhibition of complex formation | AID 540263 | 340,000 tested, 0.031% active;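 also: potency is read from the fitted curve at half-maximal effect; 0% = DMSO wells and 100% = buffer wells lacking importin beta; nearly all actives have a fitted effect of over 15% in size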
#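 FRET biosensor Rango (snurportin 1 IBB between N-terminal EYFP and C-terminal Cerulean), 50 nM in PBS/1 mM DTT/0.02% Tween-20/0.1% BSA, preincubated 5 min RT with compound; 0.125 microM importin beta added, 45 min RT, CFP/YFP FRET ratio read.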
# Rango release inh – inhibitors of RanGTP-induced Rango-importin beta complex dissociation; O95149+P62826; Biochemical FRET Rango-importin beta, RanGTP-induced dissociation; Potency, µM (titrated, usually from 46.1 µM), inactives show top-dose activity change, negative = inhibition; 340,000 tested, 0.071% active; also: potency is read from the fitted curve at half-maximal effect; % of control where 0% means no effect; nearly all actives have a fitted effect of over 45% in size
#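 Quantitative HTS using a FRET biosensor: 0.1 uM Rango, 0.25 uM importin beta, 0.6 uM Ran, 2 mM GTP, 0.2 uM RCC1 final, PBS with DTT, Tween-20 and BSA. Post-read taken 45 min after Ran addition.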
# uPA generation – blocks generation of uPA at the cell surface. cell surface uPA generation assay, qHTS. AID 540303. Potency, µM (top dose mostly 38.3 µM), for the others: at the top dose activity change, negative = inhibition, most hits filed as inhibitors. 330,000 tested, 0.31% active; active = well fitted inhibition curve with a large enough effect; inconclusive = small, poorly fitted or top-dose-only effect; inactive = no such curve, though single readings can be large or run the other way; tested in mouse RAW 264.7 cells; also: potency is read from the fitted curve at half-maximal effect; % is scaled to controls: 0 for no effect and ±100 for the full control effect; nearly all actives have a fitted effect of over 55% in size
# Giardia kill – Giardia lamblia killing; Giardia lamblia trophozoite viability; activity change, % at 7.66 µM, hits read low; 340,000 tested, 0.15% active; in the data active = activity change below about -80%; inconclusive = between about -30% and that limit;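 also: parasites exposed to compound for two days anaerobically before the ATP read; % is scaled to controls: 0 for no effect and ±100 for the full control effect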
#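 Trophozoites 100 cells/well + cpd; 48 hrs, 37 deg C, anaerobic. ATPLite 1-Step added, 15-30 min RT, luminescence read (ATP-based viability).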
# Starred values were filed as active, the others as inactive; ? = inconclusive; . = not tested or not shown. In the library only some 0.59% were active in any assay of this set; here they are far more common. Unless noted, calls follow the shape of the full dose curve.
# Abbreviations – A = Integrin act MD; B = Rango complex inh; C = Rango release inh; D = uPA generation; E = Giardia kill
CCC(C)(C)NC(=O)c1ccc(Sc2nncn2C)c([N+](=O)[O-])c1
  A: -18% | B: -2% | C: 20% | D: 6% | E: -3
COc1ccc2oc(C(=O)Nc3nc(C)cs3)c(C)c2c1
  A: ? | B: -2% | C: -8% | D: 10µM* | E: -14
C=CCNCCCCOc1ccc(OCc2ccccc2)cc1
  A: -35% | B: -3% | C: -6% | D: 11µM* | E: 25
COCCCNCCCCOc1ccc(OCc2ccccc2)cc1
  A: -64% | B: 1% | C: 4% | D: ? | E: -10
CCN(CC)S(=O)(=O)c1cc(C(=O)Nc2cc(C)on2)c(Cl)cc1Cl
  A: -25% | B: -1% | C: 18% | D: 2% | E: 8
CCOc1ccc(S(=O)(=O)N2CCOCC2)cc1NC(=O)CSCc1ccc(C)cc1
  A: -37% | B: ? | C: -16% | D: 2.5µM* | E: -6
COc1cc2c(c(OC)c1OC)-c1c(cc3c(c1O)OCO3)C[C@@H](C)[C@@H](C)C2
  A: -22% | B: 0% | C: 2% | D: 11µM* | E: -12
Cc1ccc(F)c(C2C3C=CCC(C)C3C(=O)N2Cc2ccccc2)c1 (configuration not stated)
  A: . | B: . | C: . | D: . | E: -13
CCS(=O)(=O)CCn1c([N+](=O)[O-])cnc1C
  A: . | B: -2% | C: -23% | D: 1% | E: -86*
CC1=C(C#N)C(C)(C)C(C#N)=C(C)N1
  A: 10% | B: . | C: . | D: . | E: .
O=C(O)CCCN1C(=O)/C(=C\C(Cl)=C\c2ccccc2)SC1=S
  A: -77% | B: 0% | C: -9% | D: 5µM* | E: 32
CN1CCN(C(=O)CCCN2C(=O)/C(=C/c3ccccc3)SC2=S)CC1
  A: -52% | B: 4% | C: -6% | D: -3% | E: -1
COc1ccccc1C(O)c1nccn1Cc1ccccc1 (configuration not stated)
  A: . | B: . | C: . | D: . | E: 5
Cc1ccc(S(=O)(=O)N2CCN(C(=O)COC(=O)CCOc3cc(C)ccc3C)CC2)cc1
  A: -21% | B: 5% | C: 0% | D: 4% | E: 5
Cc1ccc(C)c(OCCC(=O)OCC(=O)N2CCN(S(=O)(=O)c3ccc(Cl)cc3)CC2)c1
  A: 5% | B: -3% | C: 1% | D: 10µM* | E: 3

# Full records, quoted from the list:
# CCOc1ccc(S(=O)(=O)N2CCOCC2)cc1NC(=O)CSCc1ccc(C)cc1 as listed: Integrin act MD: -37%; Rango complex inh: ?; Rango release inh: -16%; uPA generation: 2.5µM*; Giardia kill: -6
# O=C(O)CCCN1C(=O)/C(=C\C(Cl)=C\c2ccccc2)SC1=S as listed: Integrin act MD: -77%; Rango complex inh: 0%; Rango release inh: -9%; uPA generation: 5µM*; Giardia kill: 32

# (further entries)
# Abbreviations – A = Integrin act MD; B = Rango complex inh; C = Rango release inh; D = uPA generation; E = Giardia kill
CN(C)S(=O)(=O)c1ccc(N2C(=O)CC2(/C=C/c2ccccc2)C(=O)NC2CCCC2)cc1 (configuration not stated)
  A: 23% | B: 0% | C: 2% | D: -1% | E: -4
COc1ccccc1/C=C/C1(C(=O)NC2CCCC2)CC(=O)N1c1ccccc1 (configuration not stated)
  A: -21% | B: 0% | C: 7% | D: 2.8µM* | E: 11
CC(C)N(CCO)C(=O)CCc1nnc(CCCc2ccccc2)o1
  A: 13µM* | B: 2% | C: 18% | D: 1% | E: -5
O=C(NCc1ccccn1)c1cc(-c2ccc(-c3ccccc3)cc2)nc2ccccc12
  A: -20% | B: 0% | C: -11% | D: 1.1µM* | E: ?
CCNC(=S)NNC(=O)c1cc(-c2ccc(OCC)cc2)nc2ccccc12
  A: -17% | B: 2% | C: 1% | D: . | E: -81*
O=C(NCc1ccccn1)c1cc(-c2ccccc2)nc2ccccc12
  A: -4% | B: -1% | C: 1% | D: 2% | E: -2
CCc1ccc(-c2cc(C(=O)Nn3cnnc3)c3ccccc3n2)cc1
  A: 0% | B: 9% | C: 0% | D: ? | E: -100*
CCCc1ccc(-c2cc(C(=O)NN3CCOCC3)c3ccccc3n2)cc1
  A: -27% | B: 6% | C: 0% | D: . | E: -13
COc1ccc(C2Nc3ccc(NC(=O)CO)cc3C(=O)N2Cc2cccc(Cl)c2)cc1COc1ccc(NC(C)=O)cc1 (configuration not stated)
  A: . | B: . | C: . | D: . | E: 6
O=C(Nc1ccccc1)c1ccc(-n2nncc2-c2ccccc2)cc1
  A: . | B: . | C: . | D: . | E: -26
O=C(CSc1nnc(-c2ccccc2Cl)o1)Nc1ccccn1
  A: 3% | B: 0% | C: -13% | D: 10µM* | E: -17
CCOc1ccc2nc3cc(N=Nc4ccc(N)nc4N)ccc3c(N)c2c1
  A: -35% | B: ? | C: ? | D: 3% | E: -8
CC1CCc2c(sc(NC(=O)c3cccs3)c2C(=O)O)C1 (configuration not stated)
  A: 7% | B: 1% | C: -19% | D: 4µM* | E: 4
COC(=O)c1c(NC(=O)c2cccs2)sc2c1CCC(C)C2 (configuration not stated)
  A: -24% | B: 4% | C: 19% | D: -2% | E: -8
C[C@@H]1CN([C@@H](C)CO)C(=O)CCCn2nncc2CO[C@@H]1CN(C)S(=O)(=O)c1ccc(Oc2ccccc2)nc1
  A: 25% | B: . | C: . | D: . | E: .
Cc1cc(Nc2ccc([N+](=O)[O-])cc2)nc2ccccc12
  A: 4% | B: 0% | C: ? | D: 3% | E: -5
O=[N+]([O-])c1ccc(/C=N/N=C/c2ccc([N+](=O)[O-])o2)o1
  A: -26% | B: -4% | C: -12% | D: . | E: -18
Cc1ccc(-c2cc(C(=O)N/N=C/c3cccnc3)c3ccccc3n2)cc1C
  A: 0% | B: -3% | C: 24% | D: 10µM* | E: -23
O=C(N/N=C/c1ccc([N+](=O)[O-])o1)c1cc(-c2ccncc2)nc2ccccc12
  A: -41% | B: -5% | C: -9% | D: . | E: -11
Cc1cc2ncn(/N=C/c3ccc([N+](=O)[O-])o3)c2cc1C
  A: -50% | B: 58µM* | C: 0% | D: ? | E: ?
Cc1cc(N/N=C/c2ccc([N+](=O)[O-])o2)nc2ccccc12
  A: -58% | B: 9% | C: -9% | D: -7% | E: -82*
O=C(N/N=C/c1ccc([N+](=O)[O-])o1)c1cc(-c2ccc(-c3ccccc3)cc2)nc2ccccc12
  A: -17% | B: 0% | C: 8% | D: -17% | E: -98*
O=C(N/N=C/c1cccnc1)c1cc(-c2ccccc2)nc2ccccc12
  A: -32% | B: -1% | C: 3% | D: -2% | E: -16
Cc1ccc(SCC(c2ccccc2)N2CCN(CCc3ccccc3)CCC2=O)cc1 (configuration not stated)
  A: . | B: . | C: . | D: . | E: -9
Cc1ccc(-c2cc(C(=O)N/N=C/c3ccc([N+](=O)[O-])o3)c3ccccc3n2)o1
  A: -41% | B: -2% | C: 5% | D: -18% | E: -92*
COc1cc(-c2cc(C(=O)Nc3cccc(S(=O)(=O)N(C)C)c3)c3ccccc3n2)cc(OC)c1OC
  A: -28% | B: 0% | C: -1% | D: 3% | E: 13
Cc1ccc(-c2cc(C(=O)Nc3cccc(S(=O)(=O)N(C)C)c3)c3ccccc3n2)o1
  A: -23% | B: ? | C: 15µM* | D: 0% | E: 2
COc1cc(C(=O)OCC(=O)N2CCNC2=O)cc(Cl)c1OC
  A: 2% | B: -1% | C: -11% | D: 19% | E: 1
Cc1ccc(NC(=O)c2ccc([N+](=O)[O-])o2)cc1C
  A: -53% | B: 11% | C: 2% | D: -13% | E: -94*
O=C(Nc1ccc2[nH]c(=O)[nH]c2c1)c1ccc([N+](=O)[O-])o1
  A: -29% | B: -3% | C: -12% | D: -38% | E: 11
O=C(Nc1cccc(NC(=O)c2ccccc2Cl)c1)c1ccc([N+](=O)[O-])o1
  A: -51% | B: 0% | C: 4% | D: -16% | E: -103*
O=C(Nc1cccc([N+](=O)[O-])c1)c1ccc([N+](=O)[O-])o1
  A: -62% | B: . | C: . | D: . | E: .
Cc1cccc(NC(=O)c2ccc([N+](=O)[O-])o2)c1C
  A: -59% | B: 0% | C: -10% | D: -12% | E: -97*
O=C(Nc1ccc2oc(-c3ccccc3F)nc2c1)c1ccc([N+](=O)[O-])o1
  A: -30% | B: 1% | C: -2% | D: -4% | E: -96*

# Screens as filed in PubChem BioAssay.
